Earlier results as cited in patent US9241935B2.
This is a selection: effects in other tests are not listed, and their absence says nothing.

Details: oral administration

Structure (SMILES): CCC(=O)N(c1ccccc1)C1CCN(CCc2ccccc2)CC1
- Fraction of orally administered fentanyl not absorbed (first pass effect): ≥ 50%
